Reference: paper doi:10.1101/820381v1 (biorxiv, 2019)

Tested on: CCC/C=C/C=O
Assay: purified protein
Settings: pH 7.2; 25.0 °C

Substance: OPR3 (12-oxophytodienoic acid reductase 3) (Arabidopsis thaliana)
- Km: 4.36 ± 0.318 mM
